Measurements from patent US20040086900A1, “Cloning of mammalian genes in microbial organisms and methods for pharmacological screening” (priority 1990, published 2004).

Test system: yeast containing RAS2^va119 expressing rat DPD gene
Settings: RAS2^va119 host, cells incubated in agent

COc1ccc(C2CNC(=O)C2)cc1OC1CCCC1 (stereo not shown) [Rolipram]
Reversal of heat shock resistance conferred by rat DPD: become heat shock sensitive again
